AlphaSeq binding of Ab-14 heavy chain variants to a spike HR2 peptide

The measurements come from Engelhart et al. 2022 (doi:10.1038/s41597-022-01779-4) through the FLAb antibody collection.

All variants were tested on one target, the spike HR2 peptide PDVDLGDISGINAS (SARS-CoV-2).

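Phage display of a naive human antibody library on the peptide gave the parent. AAYL49 was designed without a model: most single CDR substitutions and a random sample of double and triple ones. Affinity was read by AlphaSeq, a pooled yeast mating assay with surface-displayed partners. The frequency of each diploid, read from paired DNA barcodes, reflects how well the two displayed proteins bind. A regression on co-assayed BCL2-family reference pairs converts the normalised counts of each replicate to an apparent Kd. Each pool was mated in three replicate cultures.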

Each scFv is VH, the linker GGGGSGGGGSGGGGS, VL, as in the parent Ab-14, and differs from it in the CDRs of the heavy chain only.
VH: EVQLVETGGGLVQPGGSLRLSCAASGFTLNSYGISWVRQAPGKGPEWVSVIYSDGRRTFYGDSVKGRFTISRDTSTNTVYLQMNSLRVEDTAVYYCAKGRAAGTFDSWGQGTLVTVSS
VL: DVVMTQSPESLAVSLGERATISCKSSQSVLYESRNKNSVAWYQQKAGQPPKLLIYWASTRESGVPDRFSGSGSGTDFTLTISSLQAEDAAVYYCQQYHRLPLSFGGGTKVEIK

The parent's heavy chain CDRs are GFTLNSYGIS, VIYSDGRRTFYGDSVK, GRAAGTFDS; each variant's own CDRs replace them letter for letter. All variants listed here change S53 of the VH, counted from its first residue. Values are apparent Kd, the geometric mean of the replicates that gave a signal; lower means stronger binding. Where no diploid with the target was found in any replicate, the entry reads "no signal": below detection, most likely a poor binder, though not proof of it. Background: pairings of library AAYL49 with three empty control strains gave a value in 15% of cases (median 11 µM, 5th percentile 680 nM). Values in that range, when seen in few replicates, are hard to tell from nonspecific mating. For each scFv, signals with the empty controls are counted beside the result.

* GFTLHGYGIS | VIYKDGRRTFYGDSVK | GRAAGTFDS = no signal (0 of 3 replicates; controls 1 of 9)
* GFTLNSYGIS | VIYWDGRRTFYGDSVK | GRAWGRFDS = 1.5 µM (1 of 3 replicates; controls 1 of 9)
* GFTLNLYGIS | VIYDDGRRTFYGDSVK | GRAAGTCDS = 20 µM (1 of 3 replicates; controls 4 of 9)
* GFTLNSYGIS | VIYGDGRRTFYGDSVK | GRAAGTFDS = 320 nM (2 of 3 replicates; controls 0 of 9)
* GITLNSYGIS | VIYMDGRFTFYGDSVK | GRAAGTFDS = no signal (0 of 3 replicates; controls 3 of 9)
* GDTLNSYGIS | VIYFDIRRTFYGDSVK | GRAAGTFDS = 36 µM (3 of 3 replicates; controls 2 of 9)
* GFTLNSYGIS | PITCDGRRTFYGDSVK | GRAAGTFDS = no signal (0 of 3 replicates; controls 0 of 9)
* GFQLNSYGIS | VILCDGRRTFYGDSVK | GRAAGTFDS = no signal (0 of 3 replicates; controls 0 of 9)
* GFTLNSYGIS | VIYHDGRRTFYGDSVK | GRAAGTSDS = 15 nM (3 of 3 replicates; controls 0 of 9)
* EFTLNSYGIS | VIYVDGRRTFYGGSVK | GRAAGTFDS = 720 nM (3 of 3 replicates; controls 3 of 9)
* GFTLNRFGIS | VIYCDGRRTFYGDSVK | GRAAGTFDS = no signal (0 of 3 replicates; controls 0 of 9)
* GWTLNSYGIS | VIYNDGRRTFYGDSVK | GRAAGTFDS = 180 µM (1 of 3 replicates; controls 2 of 9)
* GFTLNSYGIS | VIYNDGRRTFYGDSVK | TRQAGTFDS = no signal (0 of 3 replicates; controls 1 of 9)
* GFTLNKYGWS | VIYWDGRRTFYGDSVK | GRAAGTFDS = 150 µM (2 of 3 replicates; controls 2 of 9)
* GFTLNSYGIS | VIYFDGRRTFYGESVK | GRRAGTFDS = no signal (0 of 3 replicates; controls 0 of 9)
* GFTLNCYGIS | VIYFDGRRTFYGDSVK | GRAAATFDS = 2.7 µM (2 of 3 replicates; controls 1 of 9)
* GFTLNSYGQS | VIYRDGRRTFYGDSNK | GRAAGTFDS = no signal (0 of 3 replicates; controls 0 of 9)
* GFTLVSYGIS | VIYNDGRRTFYGGSVK | GRAAGTFDS = 200 µM (1 of 3 replicates; controls 2 of 9)
* GFTLNSYGIS | VIYTDGRRTFYGDSVK | GRCAGTFDS = 81 nM (3 of 3 replicates; controls 0 of 9)
* GFTLNSYGIS | VIYWDGRRTFYGDSVK | QRAFGTFDS = no signal (0 of 3 replicates; controls 0 of 9)
* GFTLNSYGIS | VIYMDGRRTFYGDSVK | GRDAGTRDS = no signal (0 of 3 replicates; controls 0 of 9)
* GFTLNSYGIS | VIYLDGRRTAYGDSVK | GRGAGTFDS = 17 µM (2 of 3 replicates; controls 8 of 9)
* GFPLNSYGQS | VIYTDGRRTFYGDSVK | GRAAGTFDS = no signal (0 of 3 replicates; controls 0 of 9)
* GFTLNSYGIS | VQYVDGRRTFYGDSVK | GRAAGIFDS = no signal (0 of 3 replicates; controls 3 of 9)
* GFTLNWYGIS | VIYVDGRRTFYGDSVK | GRAAGTFDS = no signal (0 of 3 replicates; controls 2 of 9)
* GFTLNSTGIS | VIYADGRPTFYGDSVK | GRAAGTFDS = no signal (0 of 3 replicates; controls 0 of 9)
* GFCLNSYGIS | VIYNDGRRTFYGDSVK | GRAAGTLDS = no signal (0 of 3 replicates; controls 0 of 9)
* GFKLNSYGIS | VIYGDGRRTFYGDSNK | GRAAGTFDS = no signal (0 of 3 replicates; controls 0 of 9)
* GFTLNSYGIS | VIYQKGARTFYGDSVK | GRAAGTFDS = no signal (0 of 3 replicates; controls 6 of 9)
* GFTLLSYGIS | VIYDDGRRTFYGDSVK | GRAAGTFIS = no signal (0 of 3 replicates; controls 2 of 9)
* GFTLNVYGIS | VIYKDGRRTFYGDSVK | GRAHGTFDS = 27 µM (3 of 3 replicates; controls 5 of 9)
* GFTLNSYGIW | VIYNDARRTFYGDSVK | GRAAGTFDS = 17 µM (1 of 3 replicates; controls 0 of 9)
* GFTLNSYGIS | VIYMDFRRTFYGDSVK | GRAAGTFDS = no signal (0 of 3 replicates; controls 0 of 9)
* GFTLNSEGIS | VIYWDGRRTFYGDSVC | GRAAGTFDS = no signal (0 of 3 replicates; controls 0 of 9)

Top 5 of the variants detected in all replicates, tightest first:

CDR-H1,CDR-H2,CDR-H3,apparent Kd,replicates with signal,control signals
GFTLNSYGIS,VIYHDGRRTFYGDSVK,GRAAGTSDS,15 nM,3/3,0/9
GFTLNSYGIS,VIYTDGRRTFYGDSVK,GRCAGTFDS,81 nM,3/3,0/9
EFTLNSYGIS,VIYVDGRRTFYGGSVK,GRAAGTFDS,720 nM,3/3,3/9
GFTLNVYGIS,VIYKDGRRTFYGDSVK,GRAHGTFDS,27 µM,3/3,5/9
GDTLNSYGIS,VIYFDIRRTFYGDSVK,GRAAGTFDS,36 µM,3/3,2/9

In this assay the parent's reference entry averaged 4.4 nM; its copy inside this library read 13 µM (one replicate of three).